From patent US20130029983A1, “AMINOTHIENOPYRIDAZINE INHIBITORS OF TAU ASSEMBLY” (priority 2009, published 2013)

By UniProt entry, the sequences of proteins in these tests, tags left out. Residues count along the entry.
UniProt P10636, 561-686 P618L limits assumed: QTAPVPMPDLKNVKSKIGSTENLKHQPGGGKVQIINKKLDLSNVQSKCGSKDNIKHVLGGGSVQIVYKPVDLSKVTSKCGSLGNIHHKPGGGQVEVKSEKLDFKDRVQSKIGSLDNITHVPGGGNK

What was measured:
K18PL tau [1] = target: T1, K18PL tau (Homo sapiens, UniProt P10636, P618L); assay: Heparin-induced K18PL tau fibrillization assay monitored by ThT fluorescence; settings: Table 4
Method: Tau fibril formation reactions were performed essentially as described (Crowe, A., Ballatore, C., Hyde, E., Trojanowski, J. Q., and Lee, V. M. Y. (2007) Biochemical and Biophysical Research Communications 358, 1-6). K18PL (2 μl of a 30 μM stock that also contained 0.24 μM Alexa Red-labeled K18PL) was dispensed into black 1536-well plates (Grenier) using a solenoid-based dispenser. Following transfer of 23 nL of test compound or DMSO vehicle by a pin tool from compound library plates, 2 μl/well of 40 μM heparin in reagent buffer was dispensed and the plate was centrifuged for 15 s at 1000 rpm in a table-top centrifuge. […]
K18PL fibril formation was quantified with a ThT assay as previously described (Crowe, A., Ballatore, C., Hyde, E., Trojanowski, J. Q., and Lee, V. M. Y. (2007) Biochemical and Biophysical Research Communications 358, 1-6). […] Plates were read on an Envision fluorescence plate reader with an excitation of 450 nm and an emission setting of 510 nm.
Compound effects on tau assembly were determined for the ThT and FP assays using the formula 1−(Fcompound− FDMSO)/( Fcontrol− FDMSO), where Fcontrol denotes the median plate fluorescence values (ThT assay) or mP values (FP assay) of the non-fibrillizing K18 KD control wells, FDMSO denotes the median value of the DMSO control wells, and Fcompound denotes the compound well values. […]

K18PL tau [2] = target: T1, K18PL tau; assay: K18PL tau centrifugation (sedimentation) assay, SDS-PAGE densitometry; settings: Table 4
Method: The determination of compound-induced effects on the amount of tau that remains soluble upon centrifugation, and EM visualization of tau species following incubation with test compounds, were as previously described (Crowe, A., Ballatore, C., Hyde, E., Trojanowski, J. Q., and Lee, V. M. Y. (2007) Biochemical and Biophysical Research Communications 358, 1-6).
The solubility of test compounds in the sodium acetate buffer used for subsequent fibrillization reactions was determined by turbidimetric measurements. Compounds were then evaluated in a heparin-induced tau assembly assay, in which the fibrillization of the truncated K18 tau fragment (comprised of four MT-binding repeats) bearing the P301L mutation (K18PL) found in FTDP-17, was monitored by thioflavine-T (ThT) binding and fluorescence (FIG. 3A). (Crowe, A.; et al., Identification of aminothienopyridazine inhibitors of tau assembly by quantitative high-throughput screening. Biochemistry 2009, 48, 7732-45.) The inhibitory activity of test compounds was then confirmed with an orthogonal sedimentation assay in which compound-treated fibrillizing mixtures were centrifuged and quantitation of K18PL tau in the soluble and insoluble fraction was performed by densitometric analyses of SDS-PAGE (FIG. 3B). […]

SMILES: CC(C)(C)OC(=O)Nc1nn(-c2ccc(Cl)cc2)c(=O)c2c(N)scc12
- Tau ThT Assay % Inhib. (K18PL tau [1]; highest tested concentration (80 μM)): 87%
- Tau ThT Assay Log IC50 (K18PL tau [1]; logarithm of IC50, K18PL tau ThT fluorescence inhibition): −5.2
- Tau Cent. Assay % Soluble (K18PL tau [2]): 64%
